# Measurements taken from BindingDB's records for PubMed 6310078 (Pfizer, 1983).
# The chains behind the UniProt entries cited, without tags or fusion partners.
# UniProt P31652, whole entry: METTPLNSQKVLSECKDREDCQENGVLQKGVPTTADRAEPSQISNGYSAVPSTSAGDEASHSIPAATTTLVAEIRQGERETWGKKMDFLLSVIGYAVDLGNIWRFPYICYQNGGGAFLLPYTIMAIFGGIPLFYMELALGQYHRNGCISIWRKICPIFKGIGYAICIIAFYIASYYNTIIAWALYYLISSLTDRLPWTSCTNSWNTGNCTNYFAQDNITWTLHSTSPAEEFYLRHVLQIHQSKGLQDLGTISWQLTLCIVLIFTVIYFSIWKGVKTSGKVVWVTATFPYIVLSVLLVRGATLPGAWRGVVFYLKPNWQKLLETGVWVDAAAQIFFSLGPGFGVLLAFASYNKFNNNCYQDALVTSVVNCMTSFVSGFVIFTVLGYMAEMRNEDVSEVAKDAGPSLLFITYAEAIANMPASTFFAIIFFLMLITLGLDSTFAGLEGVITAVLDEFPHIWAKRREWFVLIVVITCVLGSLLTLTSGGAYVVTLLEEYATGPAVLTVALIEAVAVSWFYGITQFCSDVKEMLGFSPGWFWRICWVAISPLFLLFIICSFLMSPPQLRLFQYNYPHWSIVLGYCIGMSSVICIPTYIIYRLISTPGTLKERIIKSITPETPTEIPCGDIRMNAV
# UniProt P10980, whole entry: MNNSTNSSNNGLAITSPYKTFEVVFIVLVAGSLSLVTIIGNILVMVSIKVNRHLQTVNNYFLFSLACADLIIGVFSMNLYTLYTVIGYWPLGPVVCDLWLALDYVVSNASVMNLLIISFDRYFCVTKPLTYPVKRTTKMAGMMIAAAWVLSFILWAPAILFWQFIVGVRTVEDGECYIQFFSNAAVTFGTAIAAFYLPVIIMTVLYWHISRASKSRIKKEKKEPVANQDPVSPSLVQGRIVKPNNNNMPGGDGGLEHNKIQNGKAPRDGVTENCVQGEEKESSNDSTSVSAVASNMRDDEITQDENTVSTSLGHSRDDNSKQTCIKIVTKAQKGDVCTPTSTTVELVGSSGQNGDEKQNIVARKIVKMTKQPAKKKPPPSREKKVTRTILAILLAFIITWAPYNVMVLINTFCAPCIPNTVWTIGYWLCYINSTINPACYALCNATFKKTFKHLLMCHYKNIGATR
# What was measured:
# [1] = target: Sodium-dependent serotonin transporter (Rattus norvegicus, UniProt P31652)
# [2] = target: Muscarinic acetylcholine receptor M2 (Rattus norvegicus, UniProt P10980)
Structure (SMILES),Ki [1] [nM],Ki [2] [nM]
N[C@H]1CC[C@@H](c2ccc(Cl)c(Cl)c2)c2ccccc21,450,–
CN[C@@H]1CC[C@@H](c2ccccc2)c2ccccc21,840,–
"CN1C2CC(OC(=O)C(CO)c3ccccc3)CC1C1OC12 (stereo not drawn) [3-hydroxy-2-phenyl-propionic acid 9-methyl-3-oxa-9-aza-tricyclo[3.3.1.0*2,4*]non-7-yl ester]",–,7
